We go through 5 molecules from ChEMBL document CHEMBL1926667, “The synthesis of 2-nitroaryl-1,2,3,4-tetrahydroisoquinolines, nitro-substituted 5,6-dihydrobenzimidazo[2,1-a]isoquinoline N-oxides and related heterocycles as potential bioreducible substrates for the enzymes NAD(P)H: quinone oxidoreductase 1 and E. coli nitroreductase” (Bioorg Med Chem Lett, 2011).

By UniProt entry, the sequences of proteins in these tests, tags left out.
UniProt P15559, whole entry, looked up: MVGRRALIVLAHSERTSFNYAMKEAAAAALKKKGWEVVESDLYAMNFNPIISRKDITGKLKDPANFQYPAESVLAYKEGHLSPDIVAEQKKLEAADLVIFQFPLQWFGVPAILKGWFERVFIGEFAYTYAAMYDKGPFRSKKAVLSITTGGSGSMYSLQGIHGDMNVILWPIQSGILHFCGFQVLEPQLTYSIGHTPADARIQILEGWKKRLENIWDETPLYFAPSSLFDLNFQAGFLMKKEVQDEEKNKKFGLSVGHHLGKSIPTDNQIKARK

The target of experiment [1] is NAD(P)H dehydrogenase [quinone] 1 (Homo sapiens) (UniProt P15559). The experiment can be described thus: Activation of human NQO1 assessed as decrease in substrate concentration at 100 uM by HPLC analysis relative to CB-1954. In outline:
(§1)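 Reduction by human NQO1 or E. coli NR followed by the disappearance of substrate over time; specific activity is the rate of substrate reduction at 37 °C. Relative activity is the specific activity compared with CB-1954.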

For experiment [2] the target is unchanged. Description: Activation of human NQO1 assessed as specific activity per mg of protein at 100 uM by measuring decrease in substrate concentration by HPLC analysis. A digest of the protocol:
as §1

Experiment [3] has the same target. The experiment can be described thus: Activation of human NQO1 assessed as specific activity per mg of protein at 100 uM by measuring decrease in NADH concentration.
Experiment [4] has the same target. Description: Activation of human NQO1 assessed as decrease in NADH concentration at 100 uM relative to CB-1954.

`NC(=O)c1cc(N2CCc3ccc([N+](=O)[O-])cc3C2)c([N+](=O)[O-])cc1[N+](=O)[O-]`: in experiment [1], the fold change (FC) is under 0.16. In experiment [2], the Activity is under 0.001 µmol/min.

Take `NC(=O)c1cc(N2CCc3c(cccc3[N+](=O)[O-])C2)c([N+](=O)[O-])cc1[N+](=O)[O-]`: the fold change (FC) in experiment [1] worked out at 0.23. Moreover, the Activity in experiment [2] came to 0.0014 µmol/min.

Consider `O=C(O)c1cc([N+](=O)[O-])cc([N+](=O)[O-])c1N1CCc2ccc([N+](=O)[O-])cc2C1`, for which the Activity in experiment [3] was 0.02 µmol/min. In experiment [4], the fold change (FC) was 3.2.

As for `O=[N+]([O-])c1ccc(N2CCc3c(cccc3[N+](=O)[O-])C2)c([N+](=O)[O-])c1`, in experiment [1], the fold change (FC) is under 0.16. Also, in experiment [2], the Activity is under 0.001 µmol/min.

As for `O=C(O)c1cc([N+](=O)[O-])cc([N+](=O)[O-])c1N1CCc2c(cccc2[N+](=O)[O-])C1`, the Activity in experiment [3] was 0.038 µmol/min. In experiment [4], the fold change (FC) worked out at 6.1.
